# ChEMBL document CHEMBL1671721, “Chemical validation of phosphodiesterase C as a chemotherapeutic target in Trypanosoma cruzi, the etiological agent of Chagas' disease” (Antimicrob Agents Chemother, 2010)
# Test: Selectivity ratio, IC50 for Trypanosoma cruzi Y PDEC to IC50 for human PDE4
row,Ratio IC50,Compound
1,4,CCCCC(=O)c1ccc(OC2CCOC2)c(OC)c1 (configuration not stated)
2,4,CCCC(=O)c1ccc(OC2CCOC2)c(OC)c1 (configuration not stated)
